## Binding of CDR-mutated scFvs to a peptide of the spike HR2 region

Target: peptide PDVDLGDISGINAS, taken from heptad repeat 2 (HR2) of SARS-CoV-2 spike.

Parent: Ab-14, a human scFv built as VH, three GGGGS repeats, VL. Only the CDRs of the heavy chain vary.
VH: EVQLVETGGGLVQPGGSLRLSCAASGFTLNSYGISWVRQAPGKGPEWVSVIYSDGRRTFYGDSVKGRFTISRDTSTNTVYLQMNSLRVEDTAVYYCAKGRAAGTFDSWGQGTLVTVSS
VL: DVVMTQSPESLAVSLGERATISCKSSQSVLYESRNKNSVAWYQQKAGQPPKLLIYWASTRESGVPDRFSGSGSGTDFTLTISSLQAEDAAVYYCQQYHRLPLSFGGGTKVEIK

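The starting antibody came from a phage panning campaign against this peptide. This is the validation round: designs drawn from the data on random variants, tested in the same kind of assay. Group labels follow the data file (Ctrl: baseline library sampled from a position-specific scoring matrix, with some repeated check sequences; GP: Gaussian process model; GPLM: also part of the Gaussian process libraries; HC: hill climbing; Gen: genetic algorithm; a sequence that several methods proposed may carry one label only). AlphaSeq pools MATa yeast showing the antibodies with MATalpha yeast showing the peptide. After mating in shaken culture at 30 °C for 16 h, diploids were selected and their barcode pairs sequenced. The ratio of observed to expected reads was calibrated, replicate by replicate, on BCL2-family standards whose Kd was known from biolayer interferometry. Mating was done six times.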

Variants are written as CDR1, CDR2 and CDR3 of the heavy chain (limits as in the source). Parent: GFTLNSYGIS, VIYSDGRRTFYGDSVK, GRAAGTFDS. Numbers give log10(Kd / nM), so 0 is 1 nM and 3 is 1 µM. Smaller is tighter. A mean of the replicates is given; it leaves out those without a signal. "nd" marks a missing value. The strain was present, yet no cells mated with the target were sequenced in that replicate, which points to weak or no binding.

| CDR-H1 | CDR-H2 | CDR-H3 | group | log10 Kd, replicates | log10 Kd (nM), mean | signal with controls |
|---|---|---|---|---|---|---|
| GFTLNSYGIS | VIYSDGRRTFYGDSVK | GRAAATFDM | Ctrl | nd nd nd nd nd nd | nd | 0 of 18 |
| GFELNSYGIS | VIYSDGRRTQYGDSVK | GRAAGTFDS | Ctrl | nd nd nd nd nd nd | nd | 0 of 18 |
| GFNLNSYGIS | VIYSDGRRTFYSDSVK | GRAAGTFDS | Ctrl+GPLM_HC | 1.07 0.22 0.72 -0.15 1.72 0.63; 0.12 0.26 0.16 -0.09 0.67 0.52 | 0.49 | 1 of 36 (1.69) |
| GFNLESYGIS | VIYSDGRRTFYGDSVK | GRAAGTFSS | Ctrl | nd nd nd nd nd nd | nd | 0 of 18 |
| GFTLNSYGIS | VIYSDGRRTFYGDSVK | GKYAGHGDS | Ctrl | 2.44 nd nd nd nd nd | 2.44 | 0 of 18 |
| GFTLNDYGIS | VIYADGRRTFYGDSVK | GRAAGTFNS | Ctrl | 0.53 0.06 0.00 -0.13 -0.03 -0.12 | 0.05 | 0 of 18 |
| GFTLNSYGIS | VIYSDGRRTFKGDSVK | GRAAGTFDS | Ctrl | nd nd nd nd nd nd | nd | 0 of 18 |
| DFTLNEYGIS | VIYSDGRRTAYGDSVK | GRAAGTFDS | Ctrl | -0.11 0.64 0.44 0.77 0.15 0.31 | 0.37 | 0 of 18 |
| GFTLDSYGIS | VIYSDGRRTSYGDSVK | GRAASTFDS | Ctrl | nd nd nd nd nd nd | nd | 0 of 18 |
| GFTLNSYYIS | VIYSDGRRTFYGDSVK | GQAAGTFDS | Ctrl | nd nd nd nd nd nd | nd | 1 of 18 (2.15) |
| GFTVNSYGIS | VIYSDGRRTFYGDSVK | GRHAKRFDS | Ctrl | nd nd nd nd nd nd | nd | 0 of 18 |
| GTTLNLYGIS | VIYSDGRRTFMADSVK | WTAAGTFDS | Ctrl | nd nd nd nd 0.67 nd | 0.67 | 0 of 18 |
| GFTLNAYGIS | VIYSDGRRTFYADSVK | GTSSGTFDS | Ctrl | 2.91 nd nd nd 3.10 nd | 3.01 | 1 of 18 (2.66) |
| GFNLNKYGIS | VIYSDGRRTFYGDSVK | GRAAGTFDS | Ctrl | nd nd nd 1.74 2.39 nd | 2.06 | 0 of 18 |
| GFDLNSYGIS | VIYADGRRTFYGDSVK | GRAATTFDS | Ctrl | nd nd nd nd nd nd | nd | 0 of 18 |
| GFTINSYGIS | VIYSDGRRTFYGDSVK | GRNAGTFDS | Ctrl | nd 0.39 1.25 nd nd 0.59 | 0.74 | 0 of 18 |
| GFDLNSYGIS | VIYSDGRRTAYGDSVK | NRAAGTFDS | Ctrl | nd nd nd nd nd nd | nd | 0 of 18 |
| GFTLNDYGVS | VIYSDGRRTFYGDQVK | GRAAGTFDV | Ctrl | nd nd 0.67 0.93 1.27 0.18 | 0.76 | 0 of 18 |
| GFTLNSHGIS | VIYSDGRRTFYGDSVK | GTAAGTFDS | Ctrl | nd nd nd 1.86 1.69 0.83 | 1.46 | 0 of 18 |
| GFTLNSYGIS | VIYSDGRRTFYGDSVK | GQAMGTFDS | Ctrl | nd nd nd nd nd nd | nd | 0 of 18 |
| GFTLNSYGIS | VIYSDGRRTFYEDSVK | LRAAGTFNS | Ctrl | nd nd nd nd nd nd | nd | 0 of 18 |
| GFDLQSYGIS | VIYSDGRRTFYQDSVK | GRAAGTFDS | Ctrl | nd 0.67 1.95 1.14 1.21 2.33 | 1.46 | 0 of 18 |
| GFTLNSYGIS | VIYSDGWRTFYDDSVK | GRAAGTFDA | Ctrl | nd 2.00 1.65 1.80 3.23 1.51 | 2.04 | 0 of 18 |
| GFTLNSYGIS | VIYSDGRRTFMGDSVK | GRAAVTFDS | Ctrl | nd nd nd nd nd nd | nd | 0 of 18 |
| GFTLNSYGIS | VIYSDGRRTFYGDSVK | GRAAGVFDV | Ctrl | nd nd nd nd 2.38 nd | 2.38 | 0 of 18 |
| GFTLNEYGIS | VIYMDGRRTFYGDSVK | GDAAGTFDS | Ctrl | nd nd nd nd nd nd | nd | 0 of 18 |
| GFTLNSYGIS | VIYSDGRRTFYGDSVK | CYAAGTFDS | Ctrl | nd nd nd nd nd nd | nd | 0 of 18 |
| GFTLNEYGIS | VIYSDGRRTFYGDSVK | GRVAGTFDS | Ctrl+GPLM_Gen | 0.19 0.31 -0.04 0.66 0.15 0.05; -0.08 -0.47 -0.10 -0.32 -0.17 -0.04 | 0.01 | 1 of 36 (1.82) |
| GFTLNDYGIS | VIYSDGRRTFYGDSVK | WRNAGTFDS | Ctrl | 1.94 0.54 1.68 0.96 1.89 2.30 | 1.55 | 0 of 18 |
| GFTLNSYGIS | VIYADGSRTHYGDSVK | GRAAGTFDS | Ctrl | 0.71 0.59 0.93 0.79 0.37 0.90 | 0.72 | 0 of 18 |
| CFTLNSYGIS | VIYSDGRRTFYIDSVK | GRAAGTFDS | Ctrl | nd nd 1.72 nd nd nd | 1.72 | 0 of 18 |
| RFTLNSYGIS | VIYSDGRRTAYSDSVK | LRAAGQFDS | Ctrl | nd nd nd nd nd nd | nd | 0 of 18 |
| GETLNSYGIS | VIYSDGRRTFYGDEVK | GHAAGTFDS | Ctrl | nd nd nd nd nd nd | nd | 0 of 18 |
| GFTLDSYGIS | VIYSDGRRTFYGDSVK | GRWAGTFDS | Ctrl+GP_HC | nd nd 0.38 0.96 1.20 0.65; 0.62 1.07 nd nd nd nd | 0.81 | 0 of 36 |
| GFTLNEYGIS | VIYSDPRRTFYGDSVK | GRAAGTFDS | Ctrl | nd nd nd nd nd nd | nd | 0 of 18 |

For reference, 5 entries of the list once more:

{"CDR-H1": "GFTVNSYGIS", "CDR-H2": "VIYSDGRRTFYGDSVK", "CDR-H3": "GRHAKRFDS", "group": "Ctrl", "log10 Kd, replicates": "nd nd nd nd nd nd", "log10 Kd (nM), mean": "nd", "signal with controls": "0 of 18"}
{"CDR-H1": "GFNLESYGIS", "CDR-H2": "VIYSDGRRTFYGDSVK", "CDR-H3": "GRAAGTFSS", "group": "Ctrl", "log10 Kd, replicates": "nd nd nd nd nd nd", "log10 Kd (nM), mean": "nd", "signal with controls": "0 of 18"}
{"CDR-H1": "GFTLNSYGIS", "CDR-H2": "VIYSDGRRTFYGDSVK", "CDR-H3": "CYAAGTFDS", "group": "Ctrl", "log10 Kd, replicates": "nd nd nd nd nd nd", "log10 Kd (nM), mean": "nd", "signal with controls": "0 of 18"}
{"CDR-H1": "DFTLNEYGIS", "CDR-H2": "VIYSDGRRTAYGDSVK", "CDR-H3": "GRAAGTFDS", "group": "Ctrl", "log10 Kd, replicates": "-0.11 0.64 0.44 0.77 0.15 0.31", "log10 Kd (nM), mean": "0.37", "signal with controls": "0 of 18"}
{"CDR-H1": "GFDLNSYGIS", "CDR-H2": "VIYSDGRRTAYGDSVK", "CDR-H3": "NRAAGTFDS", "group": "Ctrl", "log10 Kd, replicates": "nd nd nd nd nd nd", "log10 Kd (nM), mean": "nd", "signal with controls": "0 of 18"}

The authors averaged sequences with at least three values out of six and counted those with two or fewer as poor binders. The parent sequence was in this pool as ten entries: three were never detected, three once, and four in most replicates, with averages from 0.34 to 2.37. The range of this assay differs from that of the first round, and the authors advise against merging the two. Nonspecific signal, from three strains lacking the peptide, appeared in 1% of pairings of all heavy chain designs, centred on 2.08 (5% of these signals below 0.84); values are not corrected for it. The control count says in how many pairings with the empty strains this scFv gave a signal, with their mean in brackets. Some sequences occur more than once in the pool; their replicates are listed entry by entry, parted by semicolons.

Source: Li et al. 2023 (doi:10.1038/s41467-023-39022-2), MIT Lincoln Laboratory and A-Alpha Bio; data file from the FLAb repository.